Assay [1] deals with T1, human PPARα (Homo sapiens, UniProt Q07869).
T1 sequence (Q07869 167-468 limits assumed): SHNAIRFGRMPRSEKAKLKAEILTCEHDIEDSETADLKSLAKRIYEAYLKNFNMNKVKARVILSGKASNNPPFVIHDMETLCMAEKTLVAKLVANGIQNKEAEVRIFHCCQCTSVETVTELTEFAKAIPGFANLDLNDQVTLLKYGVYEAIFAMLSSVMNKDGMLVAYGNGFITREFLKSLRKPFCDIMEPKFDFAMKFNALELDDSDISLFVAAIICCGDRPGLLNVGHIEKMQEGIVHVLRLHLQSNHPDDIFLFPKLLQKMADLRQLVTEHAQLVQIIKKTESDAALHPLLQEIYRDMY
The assay can be described thus: Luciferase transcriptional reporter gene assay, pFA-PPARα-LBD in BHK21 cells. The class given is cell-based. The following applies: Gal4-PPARα-LBD. On the technique in general: A reporter such as luciferase makes a cellular process visible.

For assay [2], the target named is T1, human PPARα. As to the kind of experiment: PPARα radioligand binding assay (GST-PPARα-LBD fusion protein). Also noted: made in house; host or cells: E. coli BL21(pLysS).

As to `CN(CCOc1ccc(CC2SC(=O)NC2=O)cc1)c1ccccn1` (centres unmarked) [Rosiglitazone, reference compound], in assay [1], the “PPARα EC50” value was “inactive”. In addition, the “PPARα IC50” value in assay [2] was “inactive”.

Source of the values: patent publication US6890947B2, “Indolyl derivatives” (Hoffmann-La Roche Inc., priority 2002, dated 2005).
